Measured values reported in patent US20260116920A1, “HUMAN TRANSFERRIN RECEPTOR BINDING PEPTIDE” (PEPTIDREAM INC., priority 2021, published 2026).

Chains of the proteins cited; added tags and fusions are not shown. Residues count along the entry.
UniProt P02786, 89-760 limits assumed: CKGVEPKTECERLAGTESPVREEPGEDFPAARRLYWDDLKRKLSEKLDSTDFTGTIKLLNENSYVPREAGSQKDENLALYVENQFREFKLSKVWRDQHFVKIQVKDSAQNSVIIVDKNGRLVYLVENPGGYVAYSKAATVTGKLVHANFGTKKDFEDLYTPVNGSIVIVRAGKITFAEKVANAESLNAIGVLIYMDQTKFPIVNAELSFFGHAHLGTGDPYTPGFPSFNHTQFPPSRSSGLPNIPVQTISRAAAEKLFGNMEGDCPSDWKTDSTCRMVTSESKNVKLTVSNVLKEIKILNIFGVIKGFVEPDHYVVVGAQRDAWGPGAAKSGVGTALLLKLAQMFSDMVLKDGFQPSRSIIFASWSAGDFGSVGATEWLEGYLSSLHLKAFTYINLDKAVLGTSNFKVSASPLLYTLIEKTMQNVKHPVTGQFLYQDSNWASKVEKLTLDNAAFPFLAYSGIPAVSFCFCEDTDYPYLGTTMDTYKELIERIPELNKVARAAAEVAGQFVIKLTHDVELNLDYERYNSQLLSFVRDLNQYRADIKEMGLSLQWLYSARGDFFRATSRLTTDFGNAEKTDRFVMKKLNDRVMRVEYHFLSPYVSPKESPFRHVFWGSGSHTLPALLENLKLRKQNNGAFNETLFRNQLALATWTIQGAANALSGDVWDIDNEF

These compounds were tested against T1, human transferrin receptor (hTfR) (Homo sapiens, UniProt P02786) (assay: Evaluation of molecular interaction between transferrin receptor (hTfR) and peptide using surface plasmon resonance (SPR)). Details: KD class of peptide with linker binding to hTfR, by SPR (TABLE 5); read-out: SPR.
T1 construct: made in house
Type: binding
Method in brief: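 Recombinant hTfR dimer (0.5 μM) immobilized on Ni-loaded NTA chip via EDC/NHS, ethanolamine-capped. Peptides at 5–100 nM in HEPES pH 8.0 buffer with 150 mM NaCl, 0.05% Tween 20, 0.1% BSA, 1.0% DMSO, flowed by single-cycle kinetics; KD from least-squares fit of sensorgrams.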

Structure (SMILES)	Kd
CC[C@H](C)[C@@H]1NC(=O)[C@H](Cc2ccc(OCC(=O)O)cc2)NC(=O)[C@H](Cc2ccc(O)cc2)NC(=O)[C@H](CC(N)=O)NC(=O)[C@H](Cc2cn(CC(=O)O)c3ccccc23)NC(=O)[C@H](C(C)C)NC(=O)[C@H](Cc2cccc(Cl)c2)N(C)C(=O)[C@H](C(C)C)NC(=O)[C@H](C)NC(=O)CSC[C@@H](C(=O)NCC(=O)N[C@H](CCC(=O)O)C(=O)N[C@H](CO)C(=O)N[C@H](CCC(=O)O)C(=O)N[C@H](CO)C(=O)N[C@H](CO)C(=O)N[C@@H](CCCCNC(C)=O)C(N)=O)NC(=O)[C@H](Cc2ccc(O)cc2)N(C)C(=O)[C@H](Cc2ccccc2)NC(=O)[C@H](CCCNC(=N)N)NC(=O)[C@H](CCCNC(=N)N)NC(=O)[C@H]([C@@H](C)CC)NC1=O [compound 322]	1 to 100 nM
CC[C@H](C)[C@@H]1NC(=O)[C@H](Cc2ccc(OCC(=O)O)cc2)NC(=O)[C@H](Cc2ccc(O)cc2)NC(=O)[C@H](CC(N)=O)NC(=O)[C@H](Cc2cn(CC(=O)O)c3ccccc23)NC(=O)[C@H](C(C)C)NC(=O)[C@H](Cc2cccc(Cl)c2)N(C)C(=O)[C@H](C(C)C)NC(=O)[C@H](C)NC(=O)CSC[C@@H](C(=O)NCC(=O)N[C@H](CO)C(=O)N[C@H](CCC(=O)O)C(=O)N[C@H](CO)C(=O)N[C@H](CO)C(=O)N[C@H](CO)C(=O)N[C@@H](CCCCNC(C)=O)C(N)=O)NC(=O)[C@H](Cc2ccc(O)cc2)N(C)C(=O)[C@H](Cc2ccccc2)NC(=O)[C@H](CCCNC(=N)N)NC(=O)[C@H](CCCNC(=N)N)NC(=O)[C@H]([C@@H](C)CC)NC1=O [compound 323]	1 to 100 nM
CC[C@H](C)[C@@H]1NC(=O)[C@H](Cc2ccc(OCC(=O)O)cc2)NC(=O)[C@H](Cc2ccc(O)cc2)NC(=O)[C@H](CC(N)=O)NC(=O)[C@H](Cc2cn(CC(=O)O)c3ccccc23)NC(=O)[C@H](C(C)C)NC(=O)[C@H](Cc2cccc(Cl)c2)N(C)C(=O)[C@H](C(C)C)NC(=O)[C@H](C)NC(=O)CSC[C@@H](C(=O)NCC(=O)N[C@H](CO)C(=O)N[C@H](CO)C(=O)N[C@H](CO)C(=O)N[C@H](CCC(=O)O)C(=O)N[C@H](CO)C(=O)N[C@@H](CCCCNC(C)=O)C(N)=O)NC(=O)[C@H](Cc2ccc(O)cc2)N(C)C(=O)[C@H](Cc2ccccc2)NC(=O)[C@H](CCCNC(=N)N)NC(=O)[C@H](CCCNC(=N)N)NC(=O)[C@H]([C@@H](C)CC)NC1=O [compound 324]	1 to 100 nM
CC[C@H](C)[C@@H]1NC(=O)[C@H](Cc2ccc(O)cc2)NC(=O)[C@H](Cc2ccc(O)cc2)NC(=O)[C@H](CC(N)=O)NC(=O)[C@H](Cc2c[nH]c3ccccc23)NC(=O)[C@H](C(C)C)NC(=O)[C@H](Cc2ccccc2)N(C)C(=O)[C@H](C(C)C)NC(=O)[C@H](C)NC(=O)CSC[C@@H](C(=O)NCC(=O)N[C@H](CCC(=O)O)C(=O)N[C@H](CCC(=O)O)C(=O)N[C@H](CCC(=O)O)C(=O)N[C@H](CO)C(=O)N[C@H](CO)C(=O)N[C@@H](CCCCN)C(N)=O)NC(=O)[C@H](Cc2ccc(O)cc2)N(C)C(=O)[C@H](Cc2ccc(O)cc2)NC(=O)[C@H](CCCNC(=N)N)NC(=O)[C@H](CCCNC(=N)N)NC(=O)[C@H]([C@@H](C)CC)NC1=O [compound 325]	1 to 100 nM
CC[C@H](C)[C@@H]1NC(=O)[C@H](Cc2ccc(OCC(=O)O)cc2)NC(=O)[C@H](Cc2ccc(O)cc2)NC(=O)[C@H](CC(N)=O)NC(=O)[C@H](Cc2cn(CC(=O)O)c3ccccc23)NC(=O)[C@H](C(C)C)NC(=O)[C@H](Cc2cccc(Cl)c2)N(C)C(=O)[C@H](C(C)C)NC(=O)[C@H](C)NC(=O)CSC[C@@H](C(=O)NCC(=O)N[C@H](CO)C(=O)N[C@H](CCC(=O)O)C(=O)N[C@H](CCC(=O)O)C(=O)N[C@H](CCC(=O)O)C(=O)N[C@H](CO)C(=O)N[C@@H](CCCCNC(C)=O)C(N)=O)NC(=O)[C@H](Cc2ccc(O)cc2)N(C)C(=O)[C@H](Cc2ccccc2)NC(=O)[C@H](CCCNC(=N)N)NC(=O)[C@H](CCCNC(=N)N)NC(=O)[C@H]([C@@H](C)CC)NC1=O [compound 326]	1 to 100 nM
CC[C@H](C)[C@@H]1NC(=O)[C@H](Cc2ccc(OCC(=O)O)cc2)NC(=O)[C@H](Cc2ccc(O)cc2)NC(=O)[C@H](CC(N)=O)NC(=O)[C@H](Cc2cn(CC(=O)O)c3ccccc23)NC(=O)[C@H](C(C)C)NC(=O)[C@H](Cc2cccc(Cl)c2)N(C)C(=O)[C@H](C(C)C)NC(=O)[C@H](C)NC(=O)CSC[C@@H](C(=O)NCC(=O)N[C@H](CO)C(=O)N[C@H](CO)C(=O)N[C@H](CCC(=O)O)C(=O)N[C@H](CCC(=O)O)C(=O)N[C@H](CCC(=O)O)C(=O)N[C@@H](CCCCNC(C)=O)C(N)=O)NC(=O)[C@H](Cc2ccc(O)cc2)N(C)C(=O)[C@H](Cc2ccccc2)NC(=O)[C@H](CCCNC(=N)N)NC(=O)[C@H](CCCNC(=N)N)NC(=O)[C@H]([C@@H](C)CC)NC1=O [compound 327]	1 to 100 nM
CC[C@H](C)[C@@H]1NC(=O)[C@H](Cc2ccc(OCC(=O)O)cc2)NC(=O)[C@H](Cc2ccc(O)cc2)NC(=O)[C@H](CC(N)=O)NC(=O)[C@H](Cc2cn(CC(=O)O)c3ccccc23)NC(=O)[C@H](C(C)C)NC(=O)[C@H](Cc2cccc(Cl)c2)N(C)C(=O)[C@H](C(C)C)NC(=O)[C@H](C)NC(=O)CSC[C@@H](C(=O)NCC(=O)N[C@H](CCC(=O)O)C(=O)N[C@H](CCC(=O)O)C(=O)N[C@H](CO)C(=O)N[C@H](CO)C(=O)N[C@H](CCC(=O)O)C(=O)N[C@@H](CCCCNC(C)=O)C(N)=O)NC(=O)[C@H](Cc2ccc(O)cc2)N(C)C(=O)[C@H](Cc2ccccc2)NC(=O)[C@H](CCCNC(=N)N)NC(=O)[C@H](CCCNC(=N)N)NC(=O)[C@H]([C@@H](C)CC)NC1=O [compound 328]	1 to 100 nM
CC[C@H](C)[C@@H]1NC(=O)[C@H](Cc2ccc(OCC(=O)O)cc2)NC(=O)[C@H](Cc2ccc(O)cc2)NC(=O)[C@H](CC(N)=O)NC(=O)[C@H](Cc2cn(CC(=O)O)c3ccccc23)NC(=O)[C@H](C(C)C)NC(=O)[C@H](Cc2cccc(Cl)c2)N(C)C(=O)[C@H](C(C)C)NC(=O)[C@H](C)NC(=O)CSC[C@@H](C(=O)NCC(=O)N[C@H](CCC(=O)O)C(=O)N[C@H](CO)C(=O)N[C@H](CO)C(=O)N[C@H](CCC(=O)O)C(=O)N[C@H](CCC(=O)O)C(=O)N[C@@H](CCCCNC(C)=O)C(N)=O)NC(=O)[C@H](Cc2ccc(O)cc2)N(C)C(=O)[C@H](Cc2ccccc2)NC(=O)[C@H](CCCNC(=N)N)NC(=O)[C@H](CCCNC(=N)N)NC(=O)[C@H]([C@@H](C)CC)NC1=O [compound 329]	1 to 100 nM
CC[C@H](C)[C@@H]1NC(=O)[C@H](Cc2ccc(OCC(=O)O)cc2)NC(=O)[C@H](Cc2ccc(O)cc2)NC(=O)[C@H](CC(N)=O)NC(=O)[C@H](Cc2cn(CC(=O)O)c3ccccc23)NC(=O)[C@H](C(C)C)NC(=O)[C@H](Cc2cccc(Cl)c2)N(C)C(=O)[C@H](C(C)C)NC(=O)[C@H](C)NC(=O)CSC[C@@H](C(=O)NCC(=O)N[C@H](CCC(=O)O)C(=O)N[C@H](CCC(=O)O)C(=O)N[C@H](CO)C(=O)N[C@H](CCC(=O)O)C(=O)N[C@H](CO)C(=O)N[C@@H](CCCCNC(C)=O)C(N)=O)NC(=O)[C@H](Cc2ccc(O)cc2)N(C)C(=O)[C@H](Cc2ccccc2)NC(=O)[C@H](CCCNC(=N)N)NC(=O)[C@H](CCCNC(=N)N)NC(=O)[C@H]([C@@H](C)CC)NC1=O [compound 330]	1 to 100 nM
CC[C@H](C)[C@@H]1NC(=O)[C@H](Cc2ccc(OCC(=O)O)cc2)NC(=O)[C@H](Cc2ccc(O)cc2)NC(=O)[C@H](CC(N)=O)NC(=O)[C@H](Cc2cn(CC(=O)O)c3ccccc23)NC(=O)[C@H](C(C)C)NC(=O)[C@H](Cc2cccc(Cl)c2)N(C)C(=O)[C@H](C(C)C)NC(=O)[C@H](C)NC(=O)CSC[C@@H](C(=O)NCC(=O)N[C@H](CCC(=O)O)C(=O)N[C@H](CO)C(=O)N[C@H](CCC(=O)O)C(=O)N[C@H](CCC(=O)O)C(=O)N[C@H](CO)C(=O)N[C@@H](CCCCNC(C)=O)C(N)=O)NC(=O)[C@H](Cc2ccc(O)cc2)N(C)C(=O)[C@H](Cc2ccccc2)NC(=O)[C@H](CCCNC(=N)N)NC(=O)[C@H](CCCNC(=N)N)NC(=O)[C@H]([C@@H](C)CC)NC1=O [compound 331]	1 to 100 nM
CC[C@H](C)[C@@H]1NC(=O)[C@H](Cc2ccc(OCC(=O)O)cc2)NC(=O)[C@H](Cc2ccc(O)cc2)NC(=O)[C@H](CC(N)=O)NC(=O)[C@H](Cc2cn(CC(=O)O)c3ccccc23)NC(=O)[C@H](C(C)C)NC(=O)[C@H](Cc2cccc(Cl)c2)N(C)C(=O)[C@H](C(C)C)NC(=O)[C@H](C)NC(=O)CSC[C@@H](C(=O)NCC(=O)N[C@H](CO)C(=O)N[C@H](CCC(=O)O)C(=O)N[C@H](CCC(=O)O)C(=O)N[C@H](CO)C(=O)N[C@H](CCC(=O)O)C(=O)N[C@@H](CCCCNC(C)=O)C(N)=O)NC(=O)[C@H](Cc2ccc(O)cc2)N(C)C(=O)[C@H](Cc2ccccc2)NC(=O)[C@H](CCCNC(=N)N)NC(=O)[C@H](CCCNC(=N)N)NC(=O)[C@H]([C@@H](C)CC)NC1=O [compound 332]	1 to 100 nM
CC[C@H](C)[C@@H]1NC(=O)[C@H](Cc2ccc(OCC(=O)O)cc2)NC(=O)[C@H](Cc2ccc(O)cc2)NC(=O)[C@H](CC(N)=O)NC(=O)[C@H](Cc2cn(CC(=O)O)c3ccccc23)NC(=O)[C@H](C(C)C)NC(=O)[C@H](Cc2cccc(Cl)c2)N(C)C(=O)[C@H](C(C)C)NC(=O)[C@H](C)NC(=O)CSC[C@@H](C(=O)NCC(=O)N[C@H](CO)C(=O)N[C@H](CCC(=O)O)C(=O)N[C@H](CO)C(=O)N[C@H](CCC(=O)O)C(=O)N[C@H](CCC(=O)O)C(=O)N[C@@H](CCCCNC(C)=O)C(N)=O)NC(=O)[C@H](Cc2ccc(O)cc2)N(C)C(=O)[C@H](Cc2ccccc2)NC(=O)[C@H](CCCNC(=N)N)NC(=O)[C@H](CCCNC(=N)N)NC(=O)[C@H]([C@@H](C)CC)NC1=O [compound 333]	1 to 100 nM
CC[C@H](C)[C@@H]1NC(=O)[C@H](Cc2ccc(OCC(=O)O)cc2)NC(=O)[C@H](Cc2ccc(O)cc2)NC(=O)[C@H](CC(N)=O)NC(=O)[C@H](Cc2cn(CC(=O)O)c3ccccc23)NC(=O)[C@H](C(C)C)NC(=O)[C@H](Cc2cccc(Cl)c2)N(C)C(=O)[C@H](C(C)C)NC(=O)[C@H](C)NC(=O)CSC[C@@H](C(=O)NCC(=O)N[C@H](CCC(=O)O)C(=O)N[C@H](CO)C(=O)N[C@H](CCC(=O)O)C(=O)N[C@H](CO)C(=O)N[C@H](CCC(=O)O)C(=O)N[C@@H](CCCCNC(C)=O)C(N)=O)NC(=O)[C@H](Cc2ccc(O)cc2)N(C)C(=O)[C@H](Cc2ccccc2)NC(=O)[C@H](CCCNC(=N)N)NC(=O)[C@H](CCCNC(=N)N)NC(=O)[C@H]([C@@H](C)CC)NC1=O [compound 334]	< 1 nM
